# Laboratory results from US11632953B2, “Method for controlling hematophagous or sap-feeding arthropods” (Board of Supervisors of Louisiana State University and …, priority 2016, dated 2023).
# Amino acid sequences for entries named in this document (tags omitted). Residues count along the entry.
# UniProt A0A075M2J8, 1-555: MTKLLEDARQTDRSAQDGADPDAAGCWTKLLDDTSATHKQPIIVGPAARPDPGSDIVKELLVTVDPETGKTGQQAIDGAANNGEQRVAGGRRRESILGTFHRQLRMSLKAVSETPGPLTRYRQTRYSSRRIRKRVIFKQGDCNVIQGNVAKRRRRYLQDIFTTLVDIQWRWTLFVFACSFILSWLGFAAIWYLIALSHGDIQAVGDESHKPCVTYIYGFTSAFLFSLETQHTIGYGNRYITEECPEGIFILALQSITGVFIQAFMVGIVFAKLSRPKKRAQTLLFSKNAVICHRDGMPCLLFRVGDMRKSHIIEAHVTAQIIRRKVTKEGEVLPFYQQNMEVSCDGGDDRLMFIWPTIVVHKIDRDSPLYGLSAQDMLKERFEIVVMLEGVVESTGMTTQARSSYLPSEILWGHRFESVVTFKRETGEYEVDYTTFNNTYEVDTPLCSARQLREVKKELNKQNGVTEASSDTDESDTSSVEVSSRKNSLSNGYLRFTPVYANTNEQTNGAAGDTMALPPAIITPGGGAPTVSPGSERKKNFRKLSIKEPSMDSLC
# Target: AnKir1 (Anopheles gambiae, UniProt A0A075M2J8)
# Assay: thallium (Tl+) flux assay
smiles,measurement,value
O=C(Cn1nc(C(F)(F)F)c2c1CCCC2)N1CCc2ccccc2C1,loss of potency vs VU041,7 fold
